Compounds with a hit are over-represented: about 2.1% of the library has one in this group of screens.
SMARCA2 activ – increases SMARCA2 function in MMTV reporter cells. MG213 cells, MMTV-luciferase reporter, dexamethasone, overnight. activation, % at 9.1 µM. 370,000 tested, 1% active. AID 652017; in the data active = activation above about 7.8%
NR1D1 modulator – modulators of human Rev-erb alpha DNA binding. Rev-erbα–FITC-DNA binding, fluorescence polarization, 90 min. 370,000 tested, 0.79% active. activity, % at 10 µM. P20393;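 active = activity above about 14%, limit read from the data; passing the limit was not always enough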
Yeast UUG start – modulators of start codon recognition fidelity in yeast. S. cerevisiae UUG-firefly luciferase reporter, luminescence/redox ratio. activity score, % at 18.7 µM. 0.13% of 350,000 active. AID 602363;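 active = replicate mean at a twofold rise or more, about +100% in these data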;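 also: firefly luciferase made from a UUG start codon reports start codon fidelity; reporter light over untreated wells divided by growth signal over untreated wells; some hits fall short of that in this replicate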
ERp5 inh – inhibitors of human ERp5; inhibition, % at 9.99 µM; AID 651711; 350,000 tested, 0.05% active; ERp5 insulin aggregation, absorbance 650 nm, 90 min; Q15084;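 active = mean replicate inhibition above about 25%, with every replicate also reaching it, limit read from the data, passing the limit was not always enough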
PDI inh – blocks human protein disulfide isomerase activity | P07237 | PDI insulin aggregation turbidity, A650, 90 min | inhibition, % at 10 µM | 350,000 tested, 0.052% active | AID 588391;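 active = mean inhibition across replicates of 30% or more, whatever share of single replicates reach that level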
INS-1E GSIS act – primary screen for activators of insulin secretion dependent on glucose, INS-1E cells, GLuc reporter luminescence; AID 743287; INS-1E GLuc reporter insulin secretion, 2-3 h; activation, % at 16.6 µM; 370,000 tested, 0.61% active;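 active = lowest replicate activation of at least 40%, so every replicate reaches that level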
NR1D1 mod conf – Rev-erb alpha (human) modulation, hit confirmation; shares compounds with NR1D1 modulator; Rev-erb alpha FITC-DNA binding, fluorescence polarization, 90 min; activation, % at 25 µM; 3,000 tested, 61% active;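 active = activation at or above a set limit, or at least 3 SD above the negative control mean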
RORg DNA counter – counter-screen for Rev-erb alpha modulators: RORgamma DNA binding. shares compounds with NR1D1 modulator. AID 1259320. purified RORgamma protein-FITC-DNA binding, fluorescence polarization. IC50, µM. 910 tested, 8% active;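 active = Compounds whose fitted half-maximal concentration for disrupting protein-DNA binding is below 10 micromolar; the record names Rev-erb in its text, so the target is in doubt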
A number is an active result; - = inactive; . = no result given; + = active, no number.

SMILES	SMARCA2 activ	NR1D1 modulator	Yeast UUG start	ERp5 inh	PDI inh	INS-1E GSIS act	NR1D1 mod conf	others
CC(C)NC(=O)Nc1ccc2c(c1)C(=O)N([C@@H](C)CO)C[C@H](C)[C@H](CN(C)Cc1ccc3c(c1)OCO3)O2	.	.	-	-	.	-	.
COc1ccc(NC(=O)NC[C@H]2CC[C@H]3[C@H](CN3Cc3ccccc3C(=O)O)O2)cc1	.	.	.	-	.	.	.
O=C(C[C@@H]1C=C[C@@H](NC(=O)c2ccc3c(c2)OCO3)[C@@H](CO)O1)NCc1ccc(F)cc1	.	.	-	-	.	-	.
CCOc1ccccc1NC(=O)CSc1ncnc2c1oc1ccccc12	-	+	-	.	-	-	+
CCc1nnc(NC(=O)CSc2ncnc3c2oc2ccccc23)s1	-	98	-	-	.	.	21
CC(=O)CSc1ncnc2c1oc1ccccc12	-	-	-	.	-	.	.
COC(=O)c1ccc(CSc2ncnc3c2oc2ccccc23)o1	-	147	-	.	-	-	144	RORg DNA counter=-
O=C(CSc1ncnc2c1oc1ccccc12)Nc1nc2ccccc2s1	-	-	-	-	-	-	.
O=C(CSc1ncnc2c1oc1ccccc12)Nc1cccc(Cl)c1	-	430	-	.	-	.	371	RORg DNA counter=-
Cc1ccc(S(=O)(=O)N[C@@H]2CC[C@H](CCNC(=O)CN3CCOCC3)O[C@@H]2CO)cc1	.	.	-	-	.	-	.
COc1ccc(S(=O)(=O)Nc2ccc3c(c2)[C@@H]2C[C@@H](CC(=O)O)O[C@H](CO)[C@@H]2O3)cc1	.	.	-	-	.	-	.
C[C@@H]1CN([C@@H](C)CO)S(=O)(=O)c2ccc(C#Cc3ccccn3)cc2O[C@H]1CN(C)Cc1ccccc1	.	.	-	-	.	-	.
COc1ccc(C2Nc3ccc(Br)cc3C(c3ccccc3)N2CC(=O)O)cc1 (stereo not drawn)	-	18	-	-	-	-	-
O=C(CCN1CCCCC1)NCC[C@@H]1CC[C@@H](NC(=O)Nc2ccc(Cl)cc2)[C@H](CO)O1	.	.	-	-	.	-	.
CCOc1ccccc1NC(=O)CSc1nc(N)c(C#N)cc1C#N	-	84	-	.	-	-	46	RORg DNA counter=-
COc1cc2c(cc1OC)CN(C(=O)CSc1nc(N)c(C#N)cc1C#N)CC2	.	37	.	-	-	-	47	RORg DNA counter=-
CCOC(=O)CSc1nc(N)c(C#N)cc1C#N	-	-	.	-	-	-	.
COc1ccccc1NC(=O)CSc1nc(N)cc(N)n1	-	-	.	.	-	-	.
COc1ccccc1NC(=O)CSc1nc(N)c(C#N)cc1C#N	-	73	-	-	-	-	65	RORg DNA counter=-
COc1ccc(NC(=O)N(C)C[C@H]2Oc3ncc(-c4ccc(C#N)cc4)cc3C(=O)N([C@H](C)CO)C[C@H]2C)cc1	.	.	-	-	.	-	.
COc1ccc(C#Cc2ccc3c(c2)[C@H]2[C@H](CCN2S(=O)(=O)c2ccccc2C)[C@@H](CO)N3C)cc1	.	.	-	-	.	-	.
CN(CC(=O)Nc1ccc(F)cc1)C(=O)CCc1nc2sc3c(c2c(=O)[nH]1)CCCC3	-	-	-	-	-	-	.
CN(CC(=O)Nc1ccccc1C(F)(F)F)C(=O)CCc1nc2sc3c(c2c(=O)[nH]1)CCCC3	-	30	-	-	-	-	22
O=C(CCc1nc2sc3c(c2c(=O)[nH]1)CCCC3)Nc1cccc(Cl)c1	-	30	.	-	-	-	21
CCN(CC(=O)Nc1ccccc1C(F)(F)F)C(=O)CCc1nc2sc3c(c2c(=O)[nH]1)CCCC3	-	20	-	-	-	-	-
SMILES	SMARCA2 activ	NR1D1 modulator	Yeast UUG start	ERp5 inh	PDI inh	INS-1E GSIS act	NR1D1 mod conf	others
CCN(CC(=O)Nc1c(F)cccc1F)C(=O)CCc1nc2sc3c(c2c(=O)[nH]1)CCCC3	-	-	-	-	-	-	.
CCN(CC)C(=O)c1cccc(NC(=O)CCc2nc3sc4c(c3c(=O)[nH]2)CCCC4)c1	-	-	-	-	-	-	.
Cc1ccccc1S(=O)(=O)N1CC[C@@H]2[C@@H](CO)N(C)c3ccc(-c4cccc(F)c4)cc3[C@@H]21	.	.	-	.	.	-	.
C[C@@H]1CCCCO[C@@H](CN(C)CC2CC2)[C@H](C)CN([C@H](C)CO)C(=O)c2cc(NC(=O)CCCN(C)C)ccc2O1	.	.	.	.	.	-	.
CNC[C@H]1Oc2ccc(NC(C)=O)cc2C(=O)N(C)C[C@H]1C	.	.	.	.	.	-	.
COc1ccc(CN2[C@H](CO)[C@@H]3c4ccccc4N(C(=O)c4ccccc4)C[C@@H]32)cc1	.	.	-	-	.	-	.
COc1ccc(C(=O)COC(=O)c2cc(=O)[nH]c3ccccc23)c(OC)c1	-	77	-	-	-	-	37	RORg DNA counter=-
Clc1ccc(-c2cn(-c3nc4ccccc4s3)nn2)cc1	-	19	.	-	.	-	-
O=C(Nc1ccc2c(c1)[C@@H]1C[C@H](CC(=O)N3CCc4ccccc4C3)O[C@@H](CO)[C@@H]1O2)NC1CCCC1	.	.	-	-	.	-	.
O=c1[nH]c(SCCOc2ccccc2)nc2ccccc12	-	46	-	.	-	-	25
COc1ccccc1OCCSc1nc2ccccc2c(=O)[nH]1	-	-	-	.	-	-	.
COc1ccc(CNC(=O)CN2C(=O)C3CCCN3c3ncc(Cl)cc32)cc1 (stereo not drawn)	-	43	-	.	-	.	36
O=C(CN1C(=O)C2CCCN2c2ncc(Cl)cc21)NCc1ccc2c(c1)OCO2 (stereo not drawn)	-	46	-	.	-	.	36
Cc1sc2nc(SCC(=O)NCc3ccco3)n(C)c(=O)c2c1C	-	-	.	.	-	.	.
Cc1sc2nc(SCC(=O)NCc3ccco3)n(CCc3ccccc3)c(=O)c2c1C	-	61	-	.	-	.	62	RORg DNA counter=-
O=C(C1=C[C@@H](c2ccc(C(F)(F)F)cc2)C[C@@H](OCc2ccc(CO)cc2)O1)N1CCCC1	.	.	.	-	.	.	.
C/C(N)=C(/C#N)C(=O)CSc1nc2ccccc2c(=O)n1-c1ccc(C)c(Cl)c1	-	78	-	.	-	-	31	RORg DNA counter=-
O=C(Cn1nnc(-c2ccccc2NC(=O)c2ccccc2F)n1)NC1CCCC1	-	23	-	-	-	-	27
O=C(Nc1ccccc1-c1nnn(CC(=O)N2CCOCC2)n1)c1ccccc1F	-	-	.	-	-	-	.
c1ccc(-c2nc3nonc3c3nc4ccccc4n23)cc1	-	-	.	-	-	-	.
c1ccc(-c2nc3ccccc3c3nc4ccccc4n23)cc1	-	22	.	.	-	-	-
Cc1sc2ncnc(N3CCC(C(=O)Nc4nnc(CC(C)C)s4)CC3)c2c1C	-	17	-	-	-	-	-
Cc1ccc(OCC(=O)NNC(=O)C2CCN(c3ncnc4sc(C)c(C)c34)CC2)cc1	-	-	.	-	-	-	.
c1ccc(Cn2ccc3ccc(-c4ccc5ccn(Cc6cccc(-c7ccsc7)c6)c5c4)cc32)cc1	-	31	.	.	.	.	17

Screening results from PubChem.
